These are literature values, as cited in patent publication US20210220295A1, “TREATMENT OF CANCER BY GUANIDINIUM DERIVATIVES” (priority 2018, published 2021).

This data set deals with brain cortical neurons or cardiomyocytes. The following applies: cited from earlier work.

As to “N-(6-oxo-5,6-dihydro-phenanthridin-2-yl)-N,N-dimethylacetamide, HC1 [PJ-34]”, the “survival of non-dividing cells” value is “not affected”.
